Molecular target: T1, human lysosomal N-acetyl-β-hexosaminidase A (Homo sapiens, UniProt P06865)
T1 construct: endogenous in cells; host or cells: human skin fibroblasts (wild type), cell homogenate
Experiment: Human N-acetyl-β-hexosaminidase A activity in fibroblast homogenate (4-MU N-acetyl-β-glucosaminide-6-sulfate substrate)
Assay type: biochemical
Conditions: normal human skin fibroblast homogenate, pH 4.4, 37 °C, 60 min; read-out: IC50 with human lysosomal N-acetyl-β-D-hexosaminidase A
Description: Human skin fibroblasts (wild type) were grown in minimal essential medium (MEM) with Earle’s Salts (Sigma Aldrich, St. Louis, MO, USA) containing 10% fetal bovine serum, 400 µM L-glutamine, and 50 µg/mL gentamycin at 37 °C and 5% CO2. All cells used in this study were between the third and nineteenth passages.
All inhibitors were dissolved in DMSO in a concentration of 10 mM and diluted in 10 mM phosphate buffer (pH 7.0) containing 100 mM NaCl, 0.01% NaN3, and 0.01% Triton for the IC50-measurements.
Human N-acetyl-β-hexosaminidase A activity measurements were performed in duplicate assays unless otherwise stated. Fibroblast cells of three single 80 cm^2 flasks were harvested by trypsinization in 500 µL (each of them) 0.9% NaCl containing 0.01% Triton, homogenized by sonication (4 times 15 s, Bandelin (Berlin, Germany) Sonopuls ultrasound homogenator mini 20) and centrifuged at 13.000 rpm for 1 min in a table top centrifuge (Biofuge Pico, Heraeus, Hanau, Germany). Protein amounts were determined according to the method of Lowry. […] The amount of hydrolyzed 4-methylumbelliferone was determined with a fluorescence spectrometer (F7000 Hitachi, Chiyoda, Japan). […]
Activity was measured in normal fibroblasts. […]

The chains behind the UniProt entries cited, without tags or fusion partners. Residues count along the entry.
UniProt P06865, 89-529: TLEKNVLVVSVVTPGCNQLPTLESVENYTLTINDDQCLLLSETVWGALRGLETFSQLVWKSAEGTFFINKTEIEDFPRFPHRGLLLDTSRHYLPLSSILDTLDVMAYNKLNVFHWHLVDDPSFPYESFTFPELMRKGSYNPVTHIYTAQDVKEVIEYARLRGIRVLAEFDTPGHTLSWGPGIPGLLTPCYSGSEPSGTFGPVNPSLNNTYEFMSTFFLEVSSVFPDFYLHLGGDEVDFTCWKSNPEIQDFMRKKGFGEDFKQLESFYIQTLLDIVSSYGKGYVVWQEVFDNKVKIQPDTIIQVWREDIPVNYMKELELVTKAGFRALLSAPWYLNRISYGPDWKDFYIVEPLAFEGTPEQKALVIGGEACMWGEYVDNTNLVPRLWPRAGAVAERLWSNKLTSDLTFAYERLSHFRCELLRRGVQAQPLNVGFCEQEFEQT

## CCc1nc(N)nc(N)c1-c1ccc(Cl)cc1 [pyrimethamine, reference compound]
  IC50: 62 µM
